Data: ChEMBL document CHEMBL1125023, “Flexible N-methyl-4-phenyl-1,2,3,6-tetrahydropyridine analogues: synthesis and monoamine oxidase catalyzed bioactivation” (J Med Chem, 1990)

Protein sequences, listed by entry. Tags and fused reporters are not part of them. Lines headed by an entry give the natural chain unless they say otherwise; changes in a name come on top.
UniProt P19643: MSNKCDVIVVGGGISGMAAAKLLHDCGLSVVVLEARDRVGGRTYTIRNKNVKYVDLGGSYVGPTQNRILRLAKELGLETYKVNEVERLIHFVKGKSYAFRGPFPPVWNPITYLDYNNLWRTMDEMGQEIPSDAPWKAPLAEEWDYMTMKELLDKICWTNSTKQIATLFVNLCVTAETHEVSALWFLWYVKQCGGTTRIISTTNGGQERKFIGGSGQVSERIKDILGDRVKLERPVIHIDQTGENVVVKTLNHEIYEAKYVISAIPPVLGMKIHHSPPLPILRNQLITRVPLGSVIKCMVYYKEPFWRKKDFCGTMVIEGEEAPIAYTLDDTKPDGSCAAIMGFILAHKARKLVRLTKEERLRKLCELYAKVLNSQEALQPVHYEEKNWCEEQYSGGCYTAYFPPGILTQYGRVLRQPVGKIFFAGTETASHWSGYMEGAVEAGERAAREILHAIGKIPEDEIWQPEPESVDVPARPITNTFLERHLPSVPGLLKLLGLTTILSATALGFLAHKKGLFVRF
UniProt P21396: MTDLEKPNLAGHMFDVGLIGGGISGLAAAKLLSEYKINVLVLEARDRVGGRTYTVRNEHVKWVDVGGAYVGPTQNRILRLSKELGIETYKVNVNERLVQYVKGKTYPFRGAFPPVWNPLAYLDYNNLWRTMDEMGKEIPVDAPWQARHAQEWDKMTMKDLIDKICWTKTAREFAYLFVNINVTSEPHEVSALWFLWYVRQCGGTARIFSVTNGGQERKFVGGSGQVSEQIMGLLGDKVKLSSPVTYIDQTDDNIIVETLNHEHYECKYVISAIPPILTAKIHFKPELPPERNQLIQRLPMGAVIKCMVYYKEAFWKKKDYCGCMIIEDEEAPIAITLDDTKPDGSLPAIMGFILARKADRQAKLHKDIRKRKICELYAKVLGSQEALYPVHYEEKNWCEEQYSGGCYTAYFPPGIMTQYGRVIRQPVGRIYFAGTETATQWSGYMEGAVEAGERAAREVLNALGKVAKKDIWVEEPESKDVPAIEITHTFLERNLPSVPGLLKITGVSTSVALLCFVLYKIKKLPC

What was measured:
Monoamine oxidase = Monoamine oxidase (Rattus norvegicus, UniProt P19643+P21396); experiment: Ratio of Kinetic constants (Km vs. Vmax).; type: protein assay
[1] = system: Monoamine oxidase (Rattus norvegicus); experiment: Percent inhibition of MAO-catalyzed oxidation in rat brain mitochondria induced by pargyline

## CN1CC=C(c2ccccc2)CC1
Monoamine oxidase
  Ratio: 2.2
[1]
  Inhibition: 100%
